Results reported in patent US20250283871A1, “COMPOSITIONS AND METHODS FOR MODULATING THE INTERACTION BETWEEN SS18-SSX FUSION ONCOPROTEIN AND NUCLEOSOMES” (Dana-Farber Cancer Institute, Inc., priority 2020, published 2025).

Legend:
[1] = target: H2AZ(1to19)K4ac1 histone form in mammalian mononucleosomes from HEK-293T cells (mammalian (HEK-293T cells)) (UniProt P0C0S5); experiment: MBP-SSX1 78aa pull-down of HEK293T mononucleosomes, targeted histone MS, sample MM04_D01
[2] = target: H3K9me3S10ph1K14ac0 histone form in mammalian mononucleosomes from HEK-293T cells (mammalian (HEK-293T cells)) (UniProt P68431); experiment: as above
[3] = target: H2A(12to17)ac0 histone form in mammalian mononucleosomes from HEK-293T cells (mammalian (HEK-293T cells)) (UniProt P0C0S8); experiment: as above
[4] = target: H2A(4to11)K5ac1K9ac1 histone form in mammalian mononucleosomes from HEK-293T cells (mammalian (HEK-293T cells)) (UniProt P0C0S8); experiment: as above
[5] = target: H4(4to17)K5ac1K8ac1me0 histone form in mammalian mononucleosomes from HEK-293T cells (mammalian (HEK-293T cells)) (UniProt P62805); experiment: as above
[6] = target: H2AZ(1to19)ac0 histone form in mammalian mononucleosomes from HEK-293T cells (mammalian (HEK-293T cells)) (UniProt P0C0S5); experiment: as above
[7] = target: H4(4to17)K5ac1K16ac1me0 histone form in mammalian mononucleosomes from HEK-293T cells (mammalian (HEK-293T cells)) (UniProt P62805); experiment: as above
[8] = target: H3K4me1 histone form in mammalian mononucleosomes from HEK-293T cells (mammalian (HEK-293T cells)) (UniProt P68431); experiment: as above
[9] = target: H4(4to17)K8ac1K12ac1K16ac1me0 histone form in mammalian mononucleosomes from HEK-293T cells (mammalian (HEK-293T cells)) (UniProt P62805); experiment: as above
[10] = target: H3K4ac1 histone form in mammalian mononucleosomes from HEK-293T cells (mammalian (HEK-293T cells)) (UniProt P68431); experiment: as above
[11] = target: H4(4to17)ac0me0 histone form in mammalian mononucleosomes from HEK-293T cells (mammalian (HEK-293T cells)) (UniProt P62805); experiment: as above
[12] = target: H4(20to23)K20me0 histone form in mammalian mononucleosomes from HEK-293T cells (mammalian (HEK-293T cells)) (UniProt P62805); experiment: as above
[13] = target: H4(4to17)K5ac1K8ac1K12ac1me0 histone form in mammalian mononucleosomes from HEK-293T cells (mammalian (HEK-293T cells)) (UniProt P62805); experiment: as above
[14] = target: H3K9me2S10ph1K14ac0 histone form in mammalian mononucleosomes from HEK-293T cells (mammalian (HEK-293T cells)) (UniProt P68431); experiment: as above
[15] = target: H4(4to17)K16ac1me0 histone form in mammalian mononucleosomes from HEK-293T cells (mammalian (HEK-293T cells)) (UniProt P62805); experiment: as above
[16] = target: mammalian mononucleosomes (HEK293T, MNase) carrying histone H3 K79me2 (mammalian (HEK293T cells)) (UniProt P68431); experiment: MBP-SSX1 78aa pull-down of HEK293T mononucleosomes, targeted quantitative histone MS; replicate 1 (MM04_D01)
[17] = target: mammalian mononucleosomes (HEK293T, MNase) carrying histone H3 K79me1 (mammalian (HEK293T cells)) (UniProt P68431); experiment: as above
[18] = target: mammalian mononucleosomes (HEK293T, MNase) carrying histone H3 K56me0 (mammalian (HEK293T cells)) (UniProt P68431); experiment: as above
[19] = target: mammalian mononucleosomes (HEK293T, MNase) carrying histone H3 K79me2 (mammalian (HEK293T cells)) (UniProt P68431); experiment: MBP-SSX1 78aa pull-down of HEK293T mononucleosomes, targeted quantitative histone MS; replicate 2 (MM05_E01)
[20] = target: mammalian mononucleosomes (HEK293T, MNase) carrying histone H3 K79me1 (mammalian (HEK293T cells)) (UniProt P68431); experiment: as above
[21] = target: mammalian mononucleosomes (HEK293T, MNase) carrying histone H3 K56me0 (mammalian (HEK293T cells)) (UniProt P68431); experiment: as above
[22] = target: H2A(12to17)ac0 histone form in mammalian mononucleosomes from HEK-293T cells (mammalian (HEK-293T cells)) (UniProt P0C0S8); experiment: MBP-SSX1 78aa pull-down of HEK293T mononucleosomes, targeted histone MS, sample MM05_E01

log2 normalized (Light/Heavy) intensity ratio [1]: -0.217 log2
log2 normalized (Light/Heavy) intensity ratio [2]: -0.566 log2
log2 normalized (Light/Heavy) intensity ratio [3]: 0.201 log2
log2 normalized (Light/Heavy) intensity ratio [4]: -0.031 log2
log2 normalized (Light/Heavy) intensity ratio [5]: 0.107 log2
log2 normalized (Light/Heavy) intensity ratio [6]: -0.784 log2
log2 normalized (Light/Heavy) intensity ratio [7]: 0.226 log2
log2 normalized (Light/Heavy) intensity ratio [8]: 0.74 log2
log2 normalized (Light/Heavy) intensity ratio [9]: 0.677 log2
log2 normalized (Light/Heavy) intensity ratio [10]: 0.263 log2
log2 normalized (Light/Heavy) intensity ratio [11]: -0.613 log2
log2 normalized (Light/Heavy) intensity ratio [12]: 0.017 log2
log2 normalized (Light/Heavy) intensity ratio [13]: -0.223 log2
log2 normalized (Light/Heavy) intensity ratio [14]: -0.683 log2
log2 normalized (Light/Heavy) intensity ratio [15]: -0.391 log2
log2 normalized (Light/Heavy) intensity ratio of the histone peptide [16]: 0.826 log2
log2 normalized (Light/Heavy) intensity ratio of the histone peptide [17]: 0.954 log2
log2 normalized (Light/Heavy) intensity ratio of the histone peptide [18]: 0.856 log2
log2 normalized (Light/Heavy) intensity ratio of the histone peptide [19]: 0.557 log2
log2 normalized (Light/Heavy) intensity ratio of the histone peptide [20]: 0.54 log2
log2 normalized (Light/Heavy) intensity ratio of the histone peptide [21]: 0.297 log2
log2 normalized (Light/Heavy) intensity ratio [22]: -0.12 log2
Substance: MBP-SSX1 (78aa) (from UniProt P0AEX9 27-392)
